These results are taken from patent US20230017712A1, “SUSTAINED RELEASE DRUG DELIVERY DEVICE” (OAK CREST INSTITUTE OF SCIENCE, priority 2019, published 2023).

Setting [1] is: BSA 30% w/w paste with monoolein.

Regarding bovine serum albumin [BSA], the “time to release BSA payload” value (50% w/w BSA with D-(+)-trehalose 45% and L-histidine hydrochloride 5%) was at most 2 days. Further, the “release from the implants over 28 d” value (100% BSA powder, ePTFE 0.84 g cm^−3) was “did not appreciably release”. Also, under setting [1], the release profile result is “released linearly from the implant over 8 d” and the “slope (release rate), simple linear regression” value was found to be 1.7 mg/day.
